Measurements as given in patent publication US8829028B2, “5-HT4 receptor antagonists for the treatment of heart failure” (Serodus AS, priority 2002, dated 2014).
Values joined by “and” are separate entries in the source; they are usually repeats but may differ in a detail not shown here. Equal values may be shown once. Read-outs that look alike come from different tables or passages of the source.

Amino acid sequences for entries named in this document (tags omitted). A change or cut given only in a name is not applied to a line headed by its entry.
UniProt Q13639: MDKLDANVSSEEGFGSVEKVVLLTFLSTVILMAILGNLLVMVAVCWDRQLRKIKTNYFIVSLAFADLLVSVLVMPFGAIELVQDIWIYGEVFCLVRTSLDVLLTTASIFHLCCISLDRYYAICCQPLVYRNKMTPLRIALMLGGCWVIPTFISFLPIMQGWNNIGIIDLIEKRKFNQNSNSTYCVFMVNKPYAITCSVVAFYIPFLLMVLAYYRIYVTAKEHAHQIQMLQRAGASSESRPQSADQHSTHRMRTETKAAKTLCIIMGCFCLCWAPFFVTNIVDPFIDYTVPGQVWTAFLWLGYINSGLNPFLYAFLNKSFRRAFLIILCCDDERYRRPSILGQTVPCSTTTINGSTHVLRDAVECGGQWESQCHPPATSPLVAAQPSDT
UniProt Q62758: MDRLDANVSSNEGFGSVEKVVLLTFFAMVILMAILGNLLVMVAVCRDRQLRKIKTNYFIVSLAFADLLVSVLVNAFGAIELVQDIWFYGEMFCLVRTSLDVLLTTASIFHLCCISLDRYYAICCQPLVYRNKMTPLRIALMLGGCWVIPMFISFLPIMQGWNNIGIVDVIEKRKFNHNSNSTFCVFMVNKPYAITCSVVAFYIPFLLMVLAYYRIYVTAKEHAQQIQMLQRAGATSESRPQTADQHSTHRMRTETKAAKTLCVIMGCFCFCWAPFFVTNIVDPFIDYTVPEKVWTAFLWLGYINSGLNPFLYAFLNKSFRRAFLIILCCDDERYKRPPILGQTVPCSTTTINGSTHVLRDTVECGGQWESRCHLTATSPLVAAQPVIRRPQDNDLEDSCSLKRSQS

How the values were obtained:
5-HT4 receptor [1] = target: 5-HT4 receptor (Homo sapiens, UniProt Q13639); conditions: cited from earlier work
5-HT4 receptor [2] = target: T1, 5-HT4 receptor (Rattus norvegicus, UniProt Q62758); experiment: Antagonism of the serotonin inotropic response by 5-HT4 antagonists in post-MI rat papillary muscle (reversal, curve shift, Schild Kb); format: cell-based
T1 construct: The papillary muscles were mounted in organ baths; from tissue; host or cells: rat posterior left ventricular papillary muscle (post-MI or aortic-banding heart failure)
Experimental: (§1) The muscles were field stimulated with alternating polarity at 1 Hz with impulses of 5 msec duration and current about 20% above individual threshold (10-15 mA, determined in each experiment). The isometrically contracting muscles were stretched to the maximum of their length-tension curve. The force was recorded and analysed as previously described (Skomedal et al., 1997, J. Pharmacol. Exp. Ther. 280: 721-729). The muscles were allowed to equilibrate for 90 minutes. […] Averaged contraction-relaxation cycles (CRC) were calculated for different experimental periods, and these cycles were used to determine descriptive parameters like maximal development of force (dF/dt)max, time to peak force (TPF) and time to relaxation to 20% level (TR2O). Relaxation time (RT) was calculated as TR2O-TPF. (dF/dt)max was used as an index of contractility. Inotropic responses induced by agonists were expressed by increase in (dF/dt)max. RT was used as index of relaxation. Lusitropic responses were expressed as reduction in RT. Mechanical response at the end of the equilibrium period was used as the control response.
Agonist was added cumulatively or as a single bolus directly to the organ baths and was completely mixed in the solution within 2-3 seconds. […] The different agonists were added directly to the organ baths in increasing concentrations until supramaximal concentrations of agonist were obtained with respect to maximal inotropic response.
The responses for each concentration of agonist were generally calculated as percent of maximal response. The concentration-response curves constructed from papillary muscle experiment were constructed according to Ariens and Simonis (1964, supra), by estimating centiles (EC10 to EC100) for each single experiment and calculating the corresponding means. This calculation provides mean curves that express the response as fractional response or percent of maximum and display horizontal positioning and the correct mean slope of the curves. The horizontal positioning of the concentration-response curves was expressed as pEC50-values (=−log EC50). Data are expressed as mean±standard error of the mean (SEM) and the number of animals expressed as n. The significance levels of differences were calculated according to Students t-test. P<0.05 is considered statistically significant. The inhibition constants Kb were calculated from the Schild equation, based on the relative shifts of the concentration-response curves for receptor stimulation.

[3] = test system: papillary muscles from Chronic heart failure rats; experiment: Inotropic and lusitropic response of isolated papillary muscles from post-MI Chronic heart failure rats (organ bath, 1 Hz); format: cell-based, rat; conditions: 10 μmol/l serotonin; prazosin, atropine and timolol present
Experimental: Male, Wistar rats (Mollegaard Breeding and Research Centre, Skensved, Denmark), weighing about 320 g were intubated and ventilated with 68% N2O, 29% O2 and 2-3% Isofluran (Abbot Laboratories, USA). An extensive myocardial infarction (MI) was induced by a proximal ligation of the left coronary artery. Six weeks later the rats were anaesthetized and ventilated on the respirator with 2.2% Isofluran. Left ventricular pressures were measured (Sjaastad et al., 2000, J. Appl. Physiol, 89: 1445-1454), and Chronic heart failure rats were included in the study if left ventricular end diastolic pressure (LVEDP) was >15 mm Hg. […]
The muscles were field stimulated with alternating polarity at 1 Hz with impulses of 5 msec duration and current about 20% above individual threshold (10-15 mA, determined in each experiment). […] The force was recorded and analysed as previously described (Skomedal et al., 1997, J. Pharmacol. Exp. Ther. 280: 721-729). […] Averaged contraction-relaxation cycles (CRC) were calculated for different experimental periods, and these cycles were used to determine descriptive parameters like maximal development of force (dF/dt)max, time to peak force (TPF) and time to relaxation to 20% level (TR2O). Relaxation time (RT) was calculated as TR2O-TPF. […] Lusitropic responses were expressed as reduction in RT. […]

[4] = test system: 5-HT2A receptor (Rattus norvegicus); conditions: papillary muscle
Experimental: as §1, with “RT was used as index of relaxation.” left out, “Mechanical response at the end of the equilibrium period was used as the control response.” left out
The responses for each concentration of agonist were generally calculated as percent of maximal response. […] The horizontal positioning of the concentration-response curves was expressed as pEC50-values (=−log EC50). Data are expressed as mean±standard error of the mean (SEM) and the number of animals expressed as n. The significance levels of differences were calculated according to Students t-test. […]

SMILES	selectivity for the 5-HT4 receptor over all other known receptors (5-HT4 receptor [1])	EC50 (5-HT4 receptor [2]; pEC50 of serotonin) [nM]	EC50 (5-HT4 receptor [2]; pEC50 of serotonin, absence of GR113808, 0.1 μmol/l ketanserin present, SEM, n=6) [nM]	EC50 (5-HT4 receptor [2]; pEC50 value for serotonin)	EC50 (5-HT4 receptor [2]; presence of 5 nM RS39604, 6 week post MI rats, read-out: pEC50 value for serotonin (converted)) [nM]	time from addition of serotonin to 50% relative inotropic response [3] [s]	maximal inotropic response at the top of the concentration-response curve [4] [%]
Cn1cc(C(=O)OCC2CCN(CCNS(C)(=O)=O)CC2)c2ccccc21 [GR113808, {1-[2-(methyl-sulphonylamino)ethyl]-4-piperidinyl}methyl 1-methyl-1H-indole-3-carboxylate]	at least 1000 fold						
Cl.NCCc1c[nH]c2ccc(O)cc12 [serotonin, 5-hydroxytryptamine hydrochloride]		47.9	24	56.2 nM and 407 nM	550	22 ± 2.0	17.5±1.9
